Values quoted from earlier work, collected in patent US4921695A, “Antianginal plate for treating ischemic heart disease” (dated 1990).

Details: tablets per os

## O=[N+]([O-])O[C@H]1CO[C@H]2[C@@H]1OC[C@H]2O[N+](=O)[O-]
  Bioavailability per os: low
  Form in which active principle reaches the blood: inactivated form
  Metabolism in the liver: rapidly metabolized in the liver
